Test system: patient derived organoids
Assay: Calculated IC50 of various agents on organoids derived from the chemoresistant patient (PD3D cell culture)
Format: cell-based, human
Details: organoids of the chemoresistant stage IV patient
Description: The IC50 values were calculated from such tests. This value indicates the dosage at which 50% of the organoids were killed due to treatment.

Substance | Calculated IC50 PD3D Cell Culture
Cetuximab | Not Reached
Kadcyla: agent tested on patient derived organoids (Table 5) | Not Reached

Reference: patent US12251411B2, “Methods of treating endometrial cancer using hemp extract” (Ecofibre USA Inc., priority 2021, dated 2025)
